# Assay results taken from paper PMC8121815 (Nature Communications, 2021).
# Test system: Hsp90/TOM70 interaction
# Format: binding, human
structure (smiles),measurement,value
CC[C@H](C)[C@H](N)C(=O)N[C@H](C(=O)N[C@@H](CC(C)C)C(=O)N[C@@H](CCCNC(=N)N)C(=O)N[C@@H](CC(C)C)C(=O)NCC(=O)N[C@@H](CO)C(=O)N1CCC[C@H]1C(=O)N[C@@H](CC(C)C)C(=O)N[C@@H](CO)C(=O)N[C@@H](CC(C)C)C(=O)N[C@@H](CC(N)=O)C(=O)N[C@@H](CCSC)C(=O)N[C@@H](C)C(=O)N[C@@H](CCCNC(=N)N)C(=O)N[C@@H](CCCCN)C(=O)N[C@H](C(=O)N[C@@H](CC(C)C)C(=O)N[C@@H](CC(N)=O)C(=O)N[C@@H](CO)C(=O)N[C@@H](CC(C)C)C(=O)N[C@@H](CCC(=O)O)C(=O)N[C@@H](CC(=O)O)C(=O)N[C@@H](CCCCN)C(=O)N[C@@H](C)C(=O)N[C@@H](Cc1ccccc1)C(=O)N[C@@H](CCC(N)=O)C(=O)O)[C@@H](C)O)[C@@H](C)CC [C-peptide],effect on binding of EEVD motif / N-peptide to hTOM70,"blocked the binding of the EEVD motif to TOM70, although to a lesser extent; also recorded: clearly able to block N-peptide binding similar to the intact orf9b, albeit to a lesser extent"

# “Also recorded” adds a separate entry of the source.
